Measurements as given in ChEMBL document CHEMBL5233252, “Single and dual target inhibitors based on Bcl-2: Promising anti-tumor agents for cancer therapy” (Eur J Med Chem, 2020).

The chains behind the UniProt entries cited, without tags or fusion partners.
UniProt P10415, whole entry: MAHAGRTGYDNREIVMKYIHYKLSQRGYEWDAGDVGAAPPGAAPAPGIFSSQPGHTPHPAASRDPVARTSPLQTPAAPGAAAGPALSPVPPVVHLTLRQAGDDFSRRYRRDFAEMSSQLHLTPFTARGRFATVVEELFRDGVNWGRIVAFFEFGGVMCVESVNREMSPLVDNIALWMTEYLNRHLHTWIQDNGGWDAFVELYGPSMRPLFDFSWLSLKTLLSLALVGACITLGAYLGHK

Target: Apoptosis regulator Bcl-2 (Homo sapiens, UniProt P10415)
Experiment: Binding affinity to Bcl-2 (unknown origin) assessed as inhibition constant by competitive fluorescence polarization assay

For `CC1(C)CCC(c2ccc(Cl)cc2)=C(CN2CCN(c3ccc(C(=O)NS(=O)(=O)c4ccc(N[C@H](CCN5CCOCC5)CSc5ccccc5)c(S(=O)(=O)C(F)(F)F)c4)cc3)CC2)C1` [NAVITOCLAX], the Ki was ≤ 1 nM.
